The source of these data is PMC4964800 (Bioorganic & medicinal chemistry letters, 2016).

In this test the test system is STAT1. Briefly: IFN-γ-induced STAT1 pathway activation assay. The test is classed as cell-based. The following applies: read-out: STAT1 IC50.

As to `COc1ccc(C2=Nn3c(nnc3-c3cc(-c4ccc(Cl)cc4)n[nH]3)SC2C)cc1` (stereo not shown) [Compound 22], the IC50 – broadly, the midpoint of a concentration-inhibition curve – stood at 29.5 µM.
